Results published in patent US7267949B2, “Composition comprising methylphenidate and another drug” (Celltech Pharma Europe Limited, priority 1995, dated 2007).

Amino acid sequences for entries named in this document (tags omitted).
UniProt P33261, whole entry: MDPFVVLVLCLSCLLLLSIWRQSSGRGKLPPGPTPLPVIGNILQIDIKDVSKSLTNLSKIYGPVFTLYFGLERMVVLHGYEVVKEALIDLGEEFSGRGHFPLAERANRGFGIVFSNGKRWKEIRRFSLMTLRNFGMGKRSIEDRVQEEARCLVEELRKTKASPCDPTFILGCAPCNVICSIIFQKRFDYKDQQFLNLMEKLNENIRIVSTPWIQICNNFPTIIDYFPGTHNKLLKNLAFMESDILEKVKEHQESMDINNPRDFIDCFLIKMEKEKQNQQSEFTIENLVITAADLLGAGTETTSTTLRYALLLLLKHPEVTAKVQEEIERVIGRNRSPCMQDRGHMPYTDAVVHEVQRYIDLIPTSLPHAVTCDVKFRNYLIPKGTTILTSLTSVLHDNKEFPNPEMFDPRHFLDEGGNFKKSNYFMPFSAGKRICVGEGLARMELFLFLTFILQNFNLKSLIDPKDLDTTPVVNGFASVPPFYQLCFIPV
UniProt P11712, whole entry: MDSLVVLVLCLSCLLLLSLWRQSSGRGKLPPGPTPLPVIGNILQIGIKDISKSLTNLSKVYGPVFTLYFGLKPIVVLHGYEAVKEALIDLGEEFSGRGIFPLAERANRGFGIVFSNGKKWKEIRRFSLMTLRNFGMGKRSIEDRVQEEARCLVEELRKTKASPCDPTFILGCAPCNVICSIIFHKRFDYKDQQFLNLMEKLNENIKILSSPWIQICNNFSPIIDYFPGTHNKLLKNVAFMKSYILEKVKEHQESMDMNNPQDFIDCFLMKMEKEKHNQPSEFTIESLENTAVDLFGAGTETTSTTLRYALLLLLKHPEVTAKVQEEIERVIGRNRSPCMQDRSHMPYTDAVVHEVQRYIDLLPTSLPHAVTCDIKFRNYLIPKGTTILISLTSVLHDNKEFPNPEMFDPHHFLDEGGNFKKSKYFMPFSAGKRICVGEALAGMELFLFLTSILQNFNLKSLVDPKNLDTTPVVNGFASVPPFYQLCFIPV

Columns and labels:
P450 Isozyme 2C19 = P450 Isozyme 2C19 (Homo sapiens, UniProt P33261); experiment: Mephenytoin hydroxylase activity in human microsome preparations; conditions: standard inhibitor at 50 μM, human microsomes
P450 Isozyme 2C9 = P450 Isozyme 2C9 (Homo sapiens, UniProt P11712); experiment: Tolbutamide hydroxylase activity in human microsome preparations; conditions: test substance at 100 μM, human microsomes

Compound	% Inhibition of Enzyme Activity (Mephenytoin hydroxylase, 2C19) (P450 Isozyme 2C19) [%]	% Inhibition of Enzyme Activity (Tolbutamide hydroxylase, 2C9) (P450 Isozyme 2C9) [%]
N[C@@H]1C[C@H]1c1ccccc1 [Tranylcypronine]	83	
COC(=O)[C@@H](c1ccccc1)[C@@H]1CCCCN1 [ltmp]		34
